Test results as given in US9663508B2, “Biaryl acyl-sulfonamide compounds as sodium channel inhibitors” (AMGEN INC., priority 2013, dated 2017).

Protein sequences, listed by entry. Tags and fused reporters are not part of them.
UniProt Q15858, whole entry: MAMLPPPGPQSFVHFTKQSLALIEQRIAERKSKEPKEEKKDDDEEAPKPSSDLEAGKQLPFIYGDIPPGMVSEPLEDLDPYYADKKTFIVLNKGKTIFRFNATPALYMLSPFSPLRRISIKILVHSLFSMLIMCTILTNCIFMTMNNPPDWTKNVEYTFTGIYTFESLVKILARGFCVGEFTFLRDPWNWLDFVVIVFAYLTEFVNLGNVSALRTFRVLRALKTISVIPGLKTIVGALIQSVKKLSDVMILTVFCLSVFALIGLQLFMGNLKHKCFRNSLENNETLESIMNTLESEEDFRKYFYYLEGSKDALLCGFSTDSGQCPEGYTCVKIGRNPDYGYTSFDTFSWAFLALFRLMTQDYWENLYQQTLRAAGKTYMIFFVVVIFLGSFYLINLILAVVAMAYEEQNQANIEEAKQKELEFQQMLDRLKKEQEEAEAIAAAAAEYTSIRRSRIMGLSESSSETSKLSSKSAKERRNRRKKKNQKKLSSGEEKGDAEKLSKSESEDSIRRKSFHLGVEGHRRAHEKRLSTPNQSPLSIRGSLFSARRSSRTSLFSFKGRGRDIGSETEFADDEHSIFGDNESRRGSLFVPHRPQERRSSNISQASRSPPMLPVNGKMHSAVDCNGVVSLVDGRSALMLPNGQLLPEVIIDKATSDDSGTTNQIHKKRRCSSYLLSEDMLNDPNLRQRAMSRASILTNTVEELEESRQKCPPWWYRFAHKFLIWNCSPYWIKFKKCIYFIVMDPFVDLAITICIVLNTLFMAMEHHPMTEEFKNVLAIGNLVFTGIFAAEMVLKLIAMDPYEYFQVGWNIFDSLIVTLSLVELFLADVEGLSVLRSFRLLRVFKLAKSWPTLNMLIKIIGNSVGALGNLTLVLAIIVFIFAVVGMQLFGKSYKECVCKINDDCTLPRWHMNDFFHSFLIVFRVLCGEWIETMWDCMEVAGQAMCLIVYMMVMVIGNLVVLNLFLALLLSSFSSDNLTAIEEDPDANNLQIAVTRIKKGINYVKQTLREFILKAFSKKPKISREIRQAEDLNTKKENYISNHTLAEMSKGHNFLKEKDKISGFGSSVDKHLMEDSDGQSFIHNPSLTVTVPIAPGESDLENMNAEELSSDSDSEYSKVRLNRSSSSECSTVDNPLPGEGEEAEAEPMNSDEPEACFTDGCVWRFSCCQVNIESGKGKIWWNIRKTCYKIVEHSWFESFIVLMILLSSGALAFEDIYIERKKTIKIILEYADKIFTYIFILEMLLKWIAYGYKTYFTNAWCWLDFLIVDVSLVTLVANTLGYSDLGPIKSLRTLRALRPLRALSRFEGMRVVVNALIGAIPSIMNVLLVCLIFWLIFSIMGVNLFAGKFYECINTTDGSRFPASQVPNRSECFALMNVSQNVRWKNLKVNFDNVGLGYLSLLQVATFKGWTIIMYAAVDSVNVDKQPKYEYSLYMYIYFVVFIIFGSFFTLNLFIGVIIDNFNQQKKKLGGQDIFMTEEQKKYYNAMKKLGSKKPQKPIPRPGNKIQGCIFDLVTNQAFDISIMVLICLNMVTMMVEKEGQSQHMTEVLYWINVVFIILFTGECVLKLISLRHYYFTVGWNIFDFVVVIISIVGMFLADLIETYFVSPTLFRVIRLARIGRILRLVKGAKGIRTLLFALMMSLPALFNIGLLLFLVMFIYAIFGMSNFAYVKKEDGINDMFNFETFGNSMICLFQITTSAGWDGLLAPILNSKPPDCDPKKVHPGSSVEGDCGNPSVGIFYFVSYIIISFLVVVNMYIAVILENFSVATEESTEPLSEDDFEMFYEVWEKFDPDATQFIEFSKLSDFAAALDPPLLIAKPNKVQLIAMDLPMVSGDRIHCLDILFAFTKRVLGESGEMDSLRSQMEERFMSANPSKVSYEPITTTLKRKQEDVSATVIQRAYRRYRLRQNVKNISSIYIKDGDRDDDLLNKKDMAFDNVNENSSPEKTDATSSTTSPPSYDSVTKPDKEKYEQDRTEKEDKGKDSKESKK

Biological target: human Nav1.7 (Homo sapiens (Human), UniProt Q15858)
Assay: Nav 1.7 in vitro PatchXpress (PX) assay
Assay type: cell-based

| IC50 | Structure (SMILES) |
| --- | --- |
| 61.2 nM | COc1cc(C(=O)NS(C)(=O)=O)ccc1-c1cnc(Oc2ccc(F)cc2Cl)c(Cl)c1 [Example 377, 4-(5-chloro-6-(2-chloro-4-fluorophenoxy)-3-pyridinyl)-3-methoxy-N-(methylsulfonyl)benzamide] |
| 96.2 nM | CS(=O)(=O)NC(=O)c1ccc(-c2cnc(Oc3ccc(Cl)c(F)c3)c(Cl)c2)c(OC(F)F)c1 [Example 460, 4-(5-chloro-6-(4-chloro-3-fluorophenoxy)-3-pyridinyl)-3-(difluoromethoxy)-N-(methylsulfonyl)benzamide] |
